Source: patent US8884023B2, “Pyrano [3,2-D][1,3]thiazole as glycosidase inhibitors” (priority 2011, dated 2014)

Sequences of proteins named here, by UniProt entry; tags and fusion partners are left off.
UniProt O60502, whole entry: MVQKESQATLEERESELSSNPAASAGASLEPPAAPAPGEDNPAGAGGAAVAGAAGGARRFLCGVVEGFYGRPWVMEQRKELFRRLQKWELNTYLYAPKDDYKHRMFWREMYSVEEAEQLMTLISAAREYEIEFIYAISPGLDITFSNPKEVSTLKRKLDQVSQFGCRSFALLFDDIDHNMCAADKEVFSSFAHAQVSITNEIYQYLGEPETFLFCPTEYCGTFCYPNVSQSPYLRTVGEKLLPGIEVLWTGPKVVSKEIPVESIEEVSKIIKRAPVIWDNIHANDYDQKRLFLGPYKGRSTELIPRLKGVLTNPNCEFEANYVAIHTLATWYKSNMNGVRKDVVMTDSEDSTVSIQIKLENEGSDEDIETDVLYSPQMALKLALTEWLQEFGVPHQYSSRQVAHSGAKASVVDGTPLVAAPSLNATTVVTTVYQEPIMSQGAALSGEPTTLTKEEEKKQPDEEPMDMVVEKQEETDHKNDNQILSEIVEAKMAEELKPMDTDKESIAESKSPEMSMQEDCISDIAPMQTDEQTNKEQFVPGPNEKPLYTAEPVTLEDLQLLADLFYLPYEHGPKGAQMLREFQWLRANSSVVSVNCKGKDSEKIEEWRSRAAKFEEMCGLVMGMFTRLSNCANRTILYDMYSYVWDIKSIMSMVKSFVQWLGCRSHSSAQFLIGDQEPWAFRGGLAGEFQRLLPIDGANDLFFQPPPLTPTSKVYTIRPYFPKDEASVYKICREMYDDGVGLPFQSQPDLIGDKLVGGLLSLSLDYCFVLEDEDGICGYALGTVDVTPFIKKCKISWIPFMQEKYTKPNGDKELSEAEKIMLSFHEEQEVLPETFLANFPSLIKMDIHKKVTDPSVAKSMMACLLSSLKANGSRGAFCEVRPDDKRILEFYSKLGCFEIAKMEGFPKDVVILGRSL
UniProt Q8VIJ5, whole entry: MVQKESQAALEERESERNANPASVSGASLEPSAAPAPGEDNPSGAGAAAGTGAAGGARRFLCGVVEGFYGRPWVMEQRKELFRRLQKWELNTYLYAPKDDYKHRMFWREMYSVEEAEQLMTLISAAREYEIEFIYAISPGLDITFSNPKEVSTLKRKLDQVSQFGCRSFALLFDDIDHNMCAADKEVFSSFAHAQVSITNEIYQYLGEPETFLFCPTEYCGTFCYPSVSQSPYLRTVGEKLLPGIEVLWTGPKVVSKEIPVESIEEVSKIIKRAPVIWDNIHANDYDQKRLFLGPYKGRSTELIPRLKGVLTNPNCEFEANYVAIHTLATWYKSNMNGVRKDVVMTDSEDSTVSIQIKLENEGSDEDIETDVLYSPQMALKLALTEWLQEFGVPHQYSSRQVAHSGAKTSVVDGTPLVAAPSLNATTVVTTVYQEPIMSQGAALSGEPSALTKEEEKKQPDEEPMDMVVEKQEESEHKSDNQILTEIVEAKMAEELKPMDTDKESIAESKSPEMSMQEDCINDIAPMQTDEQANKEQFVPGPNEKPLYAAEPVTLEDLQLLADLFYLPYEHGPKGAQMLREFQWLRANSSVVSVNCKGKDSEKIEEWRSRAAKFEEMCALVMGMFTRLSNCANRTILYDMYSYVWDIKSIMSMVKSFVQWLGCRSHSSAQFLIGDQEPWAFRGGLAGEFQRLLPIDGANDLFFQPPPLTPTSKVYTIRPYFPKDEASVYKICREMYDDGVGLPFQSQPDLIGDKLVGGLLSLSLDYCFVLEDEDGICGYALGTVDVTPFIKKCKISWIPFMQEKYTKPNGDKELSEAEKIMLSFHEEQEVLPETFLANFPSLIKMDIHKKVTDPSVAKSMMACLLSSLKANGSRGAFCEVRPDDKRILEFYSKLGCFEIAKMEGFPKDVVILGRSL

Tests used:
[1] = biological target: His-Tagged hOGA (human O-GlcNAcase) (Homo sapiens, UniProt O60502); conditions: read-out: OGA enzyme inhibition (IC50); 20 nM His-Tagged hOGA, 10 μM FL-GlcNAc, pH 6.5, 60 min room temperature; tested form: TFA
[2] = biological target: O-GlcNAcase (UniProt Q8VIJ5); conditions: read-out: OGA cellular inhibition (EC50); cells expressing endogenous O-GlcNAcase (such as rat B35, rat PC-12, human SH-SY5Y), approximately 16 hours treatment; tested form: TFA

With `CCNC1=N[C@@H]2[C@@H](O)[C@H](O)[C@@H](Cn3cc(Cn4nc(C)c(C)c4C)nn3)O[C@@H]2S1` the IC50 [1] was < 0.1 µM and the EC50 [2] was > 1 µM.
